According to paper PMC9080015 (RSC Advances, 2018):

Target: T1, recombinant human CYP1B1 (Homo sapiens, UniProt Q16678)
T1 sequence (Q16678 1-543): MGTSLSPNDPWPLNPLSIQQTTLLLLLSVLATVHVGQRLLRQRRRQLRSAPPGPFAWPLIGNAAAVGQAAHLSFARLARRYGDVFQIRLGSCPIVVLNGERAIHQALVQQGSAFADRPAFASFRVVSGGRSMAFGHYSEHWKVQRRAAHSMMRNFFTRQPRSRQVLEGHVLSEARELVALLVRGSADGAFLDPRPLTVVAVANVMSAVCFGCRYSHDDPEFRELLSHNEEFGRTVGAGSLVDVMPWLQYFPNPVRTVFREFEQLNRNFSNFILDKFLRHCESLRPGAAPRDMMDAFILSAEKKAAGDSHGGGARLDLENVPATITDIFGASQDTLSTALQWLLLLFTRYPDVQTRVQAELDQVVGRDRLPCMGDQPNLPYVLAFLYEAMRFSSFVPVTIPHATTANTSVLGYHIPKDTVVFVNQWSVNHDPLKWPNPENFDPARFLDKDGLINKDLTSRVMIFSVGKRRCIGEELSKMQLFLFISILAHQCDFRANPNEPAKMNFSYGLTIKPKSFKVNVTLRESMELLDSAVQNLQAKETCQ
Experiment: EROD assay, recombinant human CYP1B1 inhibition
Type: biochemical

IC50: 5.6 nM
SMILES: O=c1cc(-c2ccccc2)oc2c1ccc1ccccc12 [ANF, α-Naphthoflavone]
